This is a selection; strong and weak results do not stand in their true shares. Active and inactive are the calls of the source.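 The calls were made as follows: active = percentage of spot-positive cells more than 3 SD above its plate mean, without a fluorescence outlier flag or 80% toxicity; inconclusive = no clear call, values can overlap the other calls; inactive = the rest.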
Assay: GFP-LC3 puncta formation changes – imaging, high-content, MEF GFP-LC3, primary screen (AID 463193);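 also: spot-positive cell cutoff set from DMSO-treated cells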
Conditions: autophagy, at 10 µM, stronger effect = higher value
With `O=c1c2cc([N+](=O)[O-])ccc2[nH]c2c([N+](=O)[O-])cc([N+](=O)[O-])cc12` the % cells with GFP-LC3 spots was active: 11.4%.
